Reference: US20080305519A1, “Biochemical method for specific protein labeling” (priority 2006, published 2008)

Chains of the proteins cited; added tags and fusions are not shown. Residues count along the entry.
UniProt Q29504, 2-1058 limits assumed: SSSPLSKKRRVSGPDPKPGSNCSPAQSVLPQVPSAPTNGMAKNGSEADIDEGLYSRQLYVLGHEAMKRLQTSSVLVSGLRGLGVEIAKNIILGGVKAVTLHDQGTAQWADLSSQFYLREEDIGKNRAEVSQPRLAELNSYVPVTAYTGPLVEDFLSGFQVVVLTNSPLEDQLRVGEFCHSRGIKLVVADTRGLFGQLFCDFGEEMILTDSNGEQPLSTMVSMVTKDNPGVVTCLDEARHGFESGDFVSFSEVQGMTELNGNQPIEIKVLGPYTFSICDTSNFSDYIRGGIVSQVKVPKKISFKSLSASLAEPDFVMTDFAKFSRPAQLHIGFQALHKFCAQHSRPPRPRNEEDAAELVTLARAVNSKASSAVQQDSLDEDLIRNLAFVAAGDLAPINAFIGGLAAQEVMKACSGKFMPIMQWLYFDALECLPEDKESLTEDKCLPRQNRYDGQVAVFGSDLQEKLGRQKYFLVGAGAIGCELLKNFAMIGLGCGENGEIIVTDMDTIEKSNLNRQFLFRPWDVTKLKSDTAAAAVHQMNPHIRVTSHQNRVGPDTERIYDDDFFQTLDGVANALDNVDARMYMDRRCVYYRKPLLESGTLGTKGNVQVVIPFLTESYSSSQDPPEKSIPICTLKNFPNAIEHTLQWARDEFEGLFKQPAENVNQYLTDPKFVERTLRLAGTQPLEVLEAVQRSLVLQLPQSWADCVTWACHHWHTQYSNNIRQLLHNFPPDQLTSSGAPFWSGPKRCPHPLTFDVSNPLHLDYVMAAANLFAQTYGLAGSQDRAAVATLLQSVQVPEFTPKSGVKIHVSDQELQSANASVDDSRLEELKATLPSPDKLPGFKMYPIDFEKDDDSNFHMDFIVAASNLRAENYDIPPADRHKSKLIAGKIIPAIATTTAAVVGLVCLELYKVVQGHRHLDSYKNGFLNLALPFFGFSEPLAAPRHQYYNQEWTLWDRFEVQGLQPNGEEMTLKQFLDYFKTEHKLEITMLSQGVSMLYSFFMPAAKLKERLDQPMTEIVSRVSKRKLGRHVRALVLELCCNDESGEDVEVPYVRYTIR
UniProt P68036, whole entry: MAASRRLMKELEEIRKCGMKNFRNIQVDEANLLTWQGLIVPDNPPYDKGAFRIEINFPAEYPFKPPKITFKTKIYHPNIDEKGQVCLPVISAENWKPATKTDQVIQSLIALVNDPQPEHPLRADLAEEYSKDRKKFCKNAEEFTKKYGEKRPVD

How the values were obtained:
[1] = biological target: ubiquitin activating enzyme (E1), rabbit (Boston Biochem cat. # E-302) (rabbit) (UniProt Q29504); experiment: cell-based or functional assay
[2] = biological target: UbCH7 (E2), human recombinant (Boston Biochem cat. # E2-640) (human) (UniProt P68036); experiment: cell-based or functional assay

Bio-Ub concentration below which no Ub-adducts were seen (FIG. 7, lanes 8-10) [1]: < 21 nM
efficiency of thioester intermediate formation compared with tag 1 [1]: 265 fold
lowest ubiquitin concentration at which ubiquitin activation (thioester intermediate) was detectable [1]: 64 nM
Bio-Ub concentration below which no Ub-adducts were seen (FIG. 7, lanes 8-10) [2]: < 21 nM
Substance: His6-Biotin-N-terminal Ubiquitin, human recombinant (Boston Biochem cat. # U-560) (from UniProt P0CG48 1-76)
